Data: patent US20250109201A1 (AGENUS, published 2025)

By UniProt entry, the sequences of proteins in these tests, tags left out. Where a name states a change or a piece, a line headed by the entry shows the natural chain unless it says otherwise. Residues count along the entry.
UniProt Q8NHL6, 24-482 limits assumed: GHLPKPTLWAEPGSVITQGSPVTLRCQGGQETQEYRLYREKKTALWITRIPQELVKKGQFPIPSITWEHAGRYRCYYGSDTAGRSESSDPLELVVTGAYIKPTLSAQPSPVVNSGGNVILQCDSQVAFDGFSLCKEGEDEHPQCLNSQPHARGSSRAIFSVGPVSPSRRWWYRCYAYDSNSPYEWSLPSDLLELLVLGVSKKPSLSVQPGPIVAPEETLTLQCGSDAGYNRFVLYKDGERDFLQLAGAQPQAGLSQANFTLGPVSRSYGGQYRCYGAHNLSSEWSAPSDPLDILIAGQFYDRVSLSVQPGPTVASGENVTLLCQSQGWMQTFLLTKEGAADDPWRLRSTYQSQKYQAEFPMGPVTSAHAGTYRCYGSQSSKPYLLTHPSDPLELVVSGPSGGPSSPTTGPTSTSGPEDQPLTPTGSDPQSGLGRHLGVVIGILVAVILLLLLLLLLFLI
UniProt Q8NHL6, 24-650: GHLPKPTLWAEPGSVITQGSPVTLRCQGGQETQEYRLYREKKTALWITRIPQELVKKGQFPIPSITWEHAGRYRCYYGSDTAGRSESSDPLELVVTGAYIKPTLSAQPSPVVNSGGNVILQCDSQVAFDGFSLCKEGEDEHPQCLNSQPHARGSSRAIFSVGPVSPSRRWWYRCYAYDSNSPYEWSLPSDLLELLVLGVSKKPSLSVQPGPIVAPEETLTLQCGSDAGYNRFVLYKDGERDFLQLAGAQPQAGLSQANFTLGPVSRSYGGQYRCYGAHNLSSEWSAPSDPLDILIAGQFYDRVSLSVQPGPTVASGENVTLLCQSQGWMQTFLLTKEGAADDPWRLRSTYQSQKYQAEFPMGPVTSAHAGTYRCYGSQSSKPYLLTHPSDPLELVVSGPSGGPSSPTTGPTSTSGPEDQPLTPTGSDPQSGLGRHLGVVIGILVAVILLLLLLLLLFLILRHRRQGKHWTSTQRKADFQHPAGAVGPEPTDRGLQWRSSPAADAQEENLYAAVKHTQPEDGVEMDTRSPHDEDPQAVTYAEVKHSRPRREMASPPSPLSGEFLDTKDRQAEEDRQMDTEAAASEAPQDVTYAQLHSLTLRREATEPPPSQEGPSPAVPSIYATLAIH
UniProt Q8NHL6, 24-458: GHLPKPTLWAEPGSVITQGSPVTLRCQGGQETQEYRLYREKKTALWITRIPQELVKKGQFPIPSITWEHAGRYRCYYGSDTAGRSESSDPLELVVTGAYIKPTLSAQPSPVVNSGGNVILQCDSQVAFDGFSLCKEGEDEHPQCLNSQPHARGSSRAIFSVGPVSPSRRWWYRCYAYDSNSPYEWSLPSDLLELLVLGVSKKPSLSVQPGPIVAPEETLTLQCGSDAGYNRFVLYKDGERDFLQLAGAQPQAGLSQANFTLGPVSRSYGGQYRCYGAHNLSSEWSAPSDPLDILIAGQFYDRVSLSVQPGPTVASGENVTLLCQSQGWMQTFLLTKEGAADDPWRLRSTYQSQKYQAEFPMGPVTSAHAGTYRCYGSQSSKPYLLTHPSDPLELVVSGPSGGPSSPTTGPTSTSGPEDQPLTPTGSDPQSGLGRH
UniProt O75023, 24-458 limits assumed: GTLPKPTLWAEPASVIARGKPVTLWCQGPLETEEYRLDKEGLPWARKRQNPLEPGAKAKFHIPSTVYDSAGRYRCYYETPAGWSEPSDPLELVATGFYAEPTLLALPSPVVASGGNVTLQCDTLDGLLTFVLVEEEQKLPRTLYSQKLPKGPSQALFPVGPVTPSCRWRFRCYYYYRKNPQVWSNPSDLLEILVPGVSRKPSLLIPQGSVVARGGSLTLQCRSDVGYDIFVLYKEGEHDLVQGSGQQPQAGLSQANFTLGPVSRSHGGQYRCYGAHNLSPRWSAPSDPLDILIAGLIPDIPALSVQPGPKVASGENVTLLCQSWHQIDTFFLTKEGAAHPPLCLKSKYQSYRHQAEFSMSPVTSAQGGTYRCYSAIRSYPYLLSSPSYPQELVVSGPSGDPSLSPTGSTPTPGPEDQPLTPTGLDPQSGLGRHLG
UniProt A6NI73, 42-268 limits assumed: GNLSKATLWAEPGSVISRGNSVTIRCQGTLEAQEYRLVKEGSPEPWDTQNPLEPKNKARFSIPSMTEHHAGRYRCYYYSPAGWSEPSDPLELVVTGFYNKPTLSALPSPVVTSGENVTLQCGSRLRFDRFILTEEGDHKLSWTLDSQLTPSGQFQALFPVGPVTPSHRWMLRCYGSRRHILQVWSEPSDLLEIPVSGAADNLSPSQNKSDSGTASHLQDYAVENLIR
UniProt Q6PI73, 24-447 limits assumed: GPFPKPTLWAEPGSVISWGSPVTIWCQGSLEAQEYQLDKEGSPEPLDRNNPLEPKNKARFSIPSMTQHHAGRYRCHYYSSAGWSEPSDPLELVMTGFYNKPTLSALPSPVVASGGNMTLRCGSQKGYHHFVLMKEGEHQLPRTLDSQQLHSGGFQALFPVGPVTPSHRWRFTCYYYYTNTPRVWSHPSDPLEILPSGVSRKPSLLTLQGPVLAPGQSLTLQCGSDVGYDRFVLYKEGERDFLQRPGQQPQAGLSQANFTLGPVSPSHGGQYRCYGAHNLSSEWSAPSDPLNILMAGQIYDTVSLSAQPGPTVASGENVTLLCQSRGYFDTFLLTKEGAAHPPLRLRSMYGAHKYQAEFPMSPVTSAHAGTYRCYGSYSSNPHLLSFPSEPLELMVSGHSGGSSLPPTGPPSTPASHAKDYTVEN
UniProt P59901, 24-446 limits assumed: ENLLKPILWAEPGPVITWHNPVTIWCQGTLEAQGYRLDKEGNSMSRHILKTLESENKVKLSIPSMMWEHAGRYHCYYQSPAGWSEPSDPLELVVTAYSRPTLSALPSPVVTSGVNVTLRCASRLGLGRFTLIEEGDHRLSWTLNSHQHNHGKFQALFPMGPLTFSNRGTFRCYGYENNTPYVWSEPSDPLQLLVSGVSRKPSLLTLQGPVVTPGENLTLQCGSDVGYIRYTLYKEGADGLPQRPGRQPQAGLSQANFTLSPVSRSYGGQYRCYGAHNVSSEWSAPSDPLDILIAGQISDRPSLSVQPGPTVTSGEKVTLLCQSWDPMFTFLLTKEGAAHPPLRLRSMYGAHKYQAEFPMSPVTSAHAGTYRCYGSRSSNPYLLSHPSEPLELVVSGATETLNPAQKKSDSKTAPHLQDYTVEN
UniProt O75019, 17-461 limits assumed: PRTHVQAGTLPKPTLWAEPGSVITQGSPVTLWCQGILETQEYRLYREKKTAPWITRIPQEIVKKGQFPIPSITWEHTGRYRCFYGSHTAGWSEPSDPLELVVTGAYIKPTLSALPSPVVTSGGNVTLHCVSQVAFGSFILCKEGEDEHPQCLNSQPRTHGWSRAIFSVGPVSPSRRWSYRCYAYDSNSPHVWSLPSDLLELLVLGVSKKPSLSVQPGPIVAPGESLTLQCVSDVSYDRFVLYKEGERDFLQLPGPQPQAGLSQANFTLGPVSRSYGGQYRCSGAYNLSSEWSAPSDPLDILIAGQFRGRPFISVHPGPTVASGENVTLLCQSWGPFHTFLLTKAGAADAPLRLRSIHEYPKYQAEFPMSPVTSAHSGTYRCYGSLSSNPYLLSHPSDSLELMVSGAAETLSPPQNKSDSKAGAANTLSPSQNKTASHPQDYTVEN
UniProt Q8N149, 24-449 limits assumed: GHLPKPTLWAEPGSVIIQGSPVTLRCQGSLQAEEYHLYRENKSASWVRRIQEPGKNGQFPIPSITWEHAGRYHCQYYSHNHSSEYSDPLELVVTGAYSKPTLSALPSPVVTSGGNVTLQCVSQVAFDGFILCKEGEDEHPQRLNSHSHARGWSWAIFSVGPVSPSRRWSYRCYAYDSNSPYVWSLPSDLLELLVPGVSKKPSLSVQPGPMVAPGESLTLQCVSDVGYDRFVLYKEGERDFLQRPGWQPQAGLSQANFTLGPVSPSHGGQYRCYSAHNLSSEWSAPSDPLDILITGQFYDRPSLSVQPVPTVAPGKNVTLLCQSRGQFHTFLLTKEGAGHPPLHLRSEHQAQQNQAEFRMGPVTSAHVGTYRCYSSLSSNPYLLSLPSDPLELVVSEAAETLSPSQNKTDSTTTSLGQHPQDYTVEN

How the values were obtained:
[1] = target: T1, human ILT2 extracellular and transmembrane domains expressed on CHO cells (human, UniProt Q8NHL6, in part); experiment: flow cytometry, CHO cells with high human ILT2
T1 construct: domain: extracellular and transmembrane domains; which one is told under assay; also called CHO cells expressing human ILT2 (relatively low or relatively high level); CHO-ILT2 cells
Procedure: (§1) CHO cells expressing relatively high and low levels of human ILT2 were seeded in a 96-well U-bottom tissue culture plate at a density of 2×10⁵ cells per well in 50 μL of PBS supplemented with 0.5% BSA, 1 mM EDTA and 0.05% sodium azide (FACS Buffer). The cells were incubated for 30 minutes at 4° C. with 50 μL of a series dilution of anti-ILT2 antibodies or isotype control (VRC01 IgG₄) at concentrations from 10 μg/mL to 0.2 ng/mL in FACS Buffer.
(§2) For antibody staining, the cells were washed three times with cold FACS Buffer and resuspended in FACS Buffer containing a FITC-conjugated mouse anti-human IgG₄ antibody (Southern Biotech/9190-02) at a final concentration of […]. After a 30-minute incubation in the dark at 4° C., the cells were washed three times and analyzed as above.

[2] = target: T2, full-length ILT2 expressed on Jurkat cells (human, UniProt Q8NHL6); experiment: cell-based or functional assay
[3] = target: T3, ECD-His tagged cynomolgus monkey ILT2 orthologue protein, variant 3 (cynomolgus monkey); experiment: SPR, ECD-His tagged receptor
T3 construct: also called Cyno ILT2 variant 3; not shown: His tag
Procedure: (§3) Briefly, SPR experiments were performed using a Biacore T200 instrument, and the association rate (Kₐ), dissociation rate (Kd), and dissociation constant (KD) were calculated from each experiment using a 1:1 binding model with Biacore™ T200 Evaluation Software. Capture of antibodies from the Human Fab Capture kit (28958325, GE Healthcare) to the Series S CM5 sensor chip (29149603, GE Healthcare) was performed using the immobilization wizard for amine coupling from the Biacore™ control panel and following the manufacturer's recommendations included with the kit.

[4] = target: T4, ECD-His tagged rhesus monkey ILT2 orthologue protein, variant 2 (rhesus monkey); experiment: SPR
T4 construct: also called Rhesus ILT2 variant 2; not shown: His tag

[5] = target: T5, ECD-His tagged cynomolgus monkey ILT2 orthologue protein, variant 1 (cynomolgus monkey); experiment: SPR
T5 construct: also called Cyno ILT2 variant 1; not shown: His tag

[6] = target: T6, ECD-His tagged rhesus monkey ILT2 orthologue protein, variant 1 (rhesus monkey); experiment: SPR
T6 construct: also called Rhesus ILT2 variant 1; not shown: His tag

[7] = target: T7, ECD-His tagged cynomolgus monkey ILT2 orthologue protein, variant 2 (cynomolgus monkey); experiment: SPR
T7 construct: also called Cyno ILT2 variant 2; not shown: His tag

[8] = target: T8, ECD-His tagged human ILT2 haplotype PE01 (human, UniProt Q8NHL6, in part); experiment: SPR, LILR family panel
T8 construct: also called Human ILT2 PE01 ECD; LILRB1/ILT2 PE01; not shown: His tag
Procedure: as §3

[9] = target: T9, complement component C1q (Sigma/C1740-1 mg) (human); experiment: ELISA, antibody coated in a dilution series, C1q added at 2 µg/mL, biotinylated anti-C1q and streptavidin-HRP
T9 construct: Bought protein; also called complement component 1q (C1q) protein

[10] = target: T2, full-length ILT2 expressed on Jurkat …; experiment: cell-based or functional assay; remark: listed apart in the source
[11] = target: T1, human ILT2 extracellular and …; experiment: flow cytometry, blocking of HLA-G-Fc-PE on CHO cells with high human ILT2
Procedure: Samples were analyzed by sequentially gating on the single cell population and plotting histograms representing the fluorescence in the PE channel.

[12] = target: T1, human ILT2 extracellular and …; experiment: flow cytometry, blocking of PE HLA-A*02:01 pentamer on CHO cells with high human ILT2
[13] = target: T1, human ILT2 extracellular and …; experiment: flow cytometry competition assay, CHO cells expressing human ILT2, preincubated with unconjugated BA252; competitor BA252-APC at 0.3 µg/mL
[14] = target: T10, recombinant human LILRB3/ILT5 (R&D Systems 9159-T5-050) (human, UniProt O75022, in part); experiment: SPR
T10 construct: Bought
Excerpt: (§4) Irrelevant antibody VRC01 IgG1 N297A was used as a negative isotype control.

[15] = target: T11, recombinant human LILRB5/LIR-8 (Sino Biological 17221-H08H-100) (human, UniProt O75023, in part); experiment: SPR
T11 construct: Bought
Excerpt: as §4

[16] = target: T12, recombinant human LILRA5/ILT11 (Sino Biological 16059-H08H-100) (human, UniProt A6NI73, in part); experiment: SPR
T12 construct: Bought
Excerpt: as §4

[17] = target: T13, recombinant human LILRB4/ILT3 (Sino Biological 16742-H08H) (human, UniProt Q8NHJ6, in part); experiment: SPR
T13 construct: Bought
Excerpt: as §4

[18] = target: T14, recombinant human LILRA6/ILT8 (Sino Biological 29813-H08H-50) (human, UniProt Q6PI73); experiment: SPR
T14 construct: Bought
Excerpt: as §4

[19] = target: T15, recombinant human LILRA4/ILT7 (Sino Biological 16058-H08H-50) (human, UniProt P59901, in part); experiment: SPR
T15 construct: Bought
Excerpt: as §4

[20] = target: T16, recombinant human LILRA1/LIR-6 (Sino Biological 17220-H08H-100) (human, UniProt O75019); experiment: SPR
T16 construct: Bought
Excerpt: as §4

[21] = target: T17, recombinant human LILRA2/ILT1 (R&D Systems 9040-T4-050) (human, UniProt Q8N149); experiment: SPR
T17 construct: Bought
Excerpt: as §4

[22] = target: T8, ECD-His tagged human ILT2 haplotype PE01; experiment: SPR, LILRA and LILRB family panel
Excerpt: as §4

[23] = target: T1, human ILT2 extracellular and …; experiment: flow cytometry, CHO cells with low human ILT2
Procedure: as §1, §2

B1: BA252 (antibody, human IgG4 S228P, kappa)
heavy: QVQLVQSGAEVKKPGASVKVSCKASGYTFNRYYMHWVRQAPGQGLEWMGWINPYTGGTNYAQKFQGRVTMTRDTSISTAYMELSRLRSDDTAVYYCASKQPSSDYWGQGTLVTVSSASTKGPSVFPLAPCSRSTSESTAALGCLVKDYFPEPVTVSWNSGALTSGVHTFPAVLQSSGLYSLSSVVTVPSSSLGTKTYTCNVDHKPSNTKVDKRVESKYGPPCPPCPAPEFLGGPSVFLFPPKPKDTLMISRTPEVTCVVVDVSQEDPEVQFNWYVDGVEVHNAKTKPREEQFNSTYRVVSVLTVLHQDWLNGKEYKCKVSNKGLPSSIEKTISKAKGQPREPQVYTLPPSQEEMTKNQVSLTCLVKGFYPSDIAVEWESNGQPENNYKTTPPVLDSDGSFFLYSRLTVDKSRWQEGNVFSCSVMHEALHNHYTQKSLSLSLG
light: DIVMTQSPLSLPVTPGEPASISCRSSQSLLHSNTYNYLDWYLQKPGQSPQLLIYLGSNRASGVPDRFSGSGSGTDFTLKISRVEAEDVGVYYCLQASQAPWTFGQGTKVEIKRTVAAPSVFIFPPSDEQLKSGTASVVCLLNNFYPREAKVQWKVDNALQSGNSQESVTEQDSKDSTYSLSSTLTLSKADYEKHKVYACEVTHQGLSSPVTKSFNRGEC
With B1 the EC50 [1] was 0.165 µg/mL, the “FcγRIIIa-NFAT luciferase signaling, EC50” value [2] was 0.07 µg/mL and the Kd [3] was 1900 nM. B1: no binding [4]; no binding [5]; no binding [6]. The binding result [7] was “no binding”, the Kd [8] was 0.24 nM and the koff [8] was 0.00011 s⁻¹. The kon [8] was 480000 M⁻¹ s⁻¹, the binding result [9] was “no binding (tested: 300 µg/ml)” and the “FcγRIIIa-NFAT luciferase signaling, Average AUC normalized to HP-F1” value [10] was 159. For the same binder, the “FcγRIIIa-NFAT luciferase signaling, EC50” value [10] was 15.3 µg/mL, the IC50 [11] was 0.103 µg/mL and the IC50 [12] was 0.11 µg/mL. For the same binder, the “IC50 (read off the curve)” value [13] was about 0.2 µg/mL, the binding result [14] was “no binding” and the binding result [15] was “no binding”. B1: no binding [16]; no binding [17]; no binding [18]. B1: no binding [19]; no binding [20]; no binding [21]. It also gave a Kd [22] of 0.2 nM and an EC50 [23] of 0.032 µg/mL.

Read-outs that look alike come from different tables or passages of the source.
